For the assay, the target named is T1, human NPRA (Homo sapiens, UniProt P16066).
T1 construct: Full-Length cDNA Cloning and Generation of Cell Lines Overexpressing Natriuretic Peptide Receptors (NPRs); expressed in transfected cells; host or cells: Jump-in T-Rex HEK293 cells, pJTI R4 CMV-TO MCS pA vector, tetracycline induction
T1 sequence (P16066 33-1061): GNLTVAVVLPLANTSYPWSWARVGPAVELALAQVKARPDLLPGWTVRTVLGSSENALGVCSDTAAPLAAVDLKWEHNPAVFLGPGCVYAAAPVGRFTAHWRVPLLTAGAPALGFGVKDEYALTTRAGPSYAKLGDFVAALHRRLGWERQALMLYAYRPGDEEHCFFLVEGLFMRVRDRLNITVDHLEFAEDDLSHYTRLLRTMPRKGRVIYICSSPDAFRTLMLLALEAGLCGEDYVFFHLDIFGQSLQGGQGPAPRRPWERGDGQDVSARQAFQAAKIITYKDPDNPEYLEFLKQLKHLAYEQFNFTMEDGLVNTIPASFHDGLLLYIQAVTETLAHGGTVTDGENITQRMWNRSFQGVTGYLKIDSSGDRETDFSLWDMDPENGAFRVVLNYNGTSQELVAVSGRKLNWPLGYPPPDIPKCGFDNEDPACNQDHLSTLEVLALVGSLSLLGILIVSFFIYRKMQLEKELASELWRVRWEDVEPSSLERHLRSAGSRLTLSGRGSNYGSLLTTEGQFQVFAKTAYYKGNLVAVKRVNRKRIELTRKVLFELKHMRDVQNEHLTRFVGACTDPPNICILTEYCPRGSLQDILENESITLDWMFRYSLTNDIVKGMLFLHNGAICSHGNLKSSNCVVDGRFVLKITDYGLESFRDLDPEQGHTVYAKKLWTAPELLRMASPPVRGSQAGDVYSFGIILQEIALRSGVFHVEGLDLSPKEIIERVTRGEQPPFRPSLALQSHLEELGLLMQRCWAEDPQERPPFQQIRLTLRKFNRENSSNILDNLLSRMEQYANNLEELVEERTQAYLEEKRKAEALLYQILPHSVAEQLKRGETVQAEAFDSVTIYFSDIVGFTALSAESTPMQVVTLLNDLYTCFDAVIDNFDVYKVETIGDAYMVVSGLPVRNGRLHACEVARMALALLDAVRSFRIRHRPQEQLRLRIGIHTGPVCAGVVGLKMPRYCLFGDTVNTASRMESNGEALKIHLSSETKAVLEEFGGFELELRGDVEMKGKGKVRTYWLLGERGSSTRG
As to the kind of experiment: Human NPRA cGMP activity assay (HTRF) in HEK293 cells overexpressing NPRA. It is filed as cell-based. The settings on record: cGMP Assay (EC50, pM) w/Casein hNPRA, assay buffer with 0.1% casein. The procedure: All sequences were verified by full-length sequencing performed by ACGT DNA Sequencing Services (Wheeling, IL). The target cDNA was cloned into pJTI R4 CMV-TO MCS pA vector and then co-transfected with pJT1R4 Int vector into Jump-in™ T-Rex™ HEK293 cells for mammalian inducible expression using Jump-in™ T-Rex™ HEK293 kit and Lipofectamine LTX and Plus Reagent following manufacturer's protocols, as briefly described below.
Jump-in™ T-Rex™ HEK293 cells were plated in a BioCOAT® poly-D-lysine coated 6-well plate (Becton Dickinson, cat no. 354413) at 1 million cells/well in 2 mL culture medium and incubated for 18 h at 37° C. and 5% CO2 to 50-70% confluence. A cDNA mix was made in a 50 mL tube by adding 1.5 μg target cDNA, 1.5 μg pJT1R4 Int vector, 3 μL Plus Reagent, and 300 μL Opti-MEM I sequentially into the tube. A reagent mix was made in a separate 50 mL tube by adding 7.5 μL Lipofectamine LTX into 300 μL Opti-MEM I. The mixtures were incubated for 5 min at room temperature. The cDNA mix was then transferred into the reagent mix, mixed well, and incubated for additional 30 min at room temperature. A 500 μL of cDNA/Lipofectamine complex was then transferred to the wells of the cell plate in which the culture medium was changed to 2 mL of transfection medium containing DMEM with 4.5 g/L D-glucose supplemented with 10% FBS-HI and 20 mM HEPES. Transfected cells were cultured for 48 h in an incubator at 37° C. and 5% CO2. A subclone or pool from each overexpressing cell line was maintained in culture medium with the addition of 2 mg/mL G418 sulfate for the clone selection based on its built-in resistance to G418 sulfate for at least 3 weeks with medium changed every 2-3 days.
NPRs were overexpressed in T-Rex™ HEK293 cells following the induction with 300 ng/mL tetracycline in culture medium for 48 h. Induced cell lines in an exponential growth phase were treated with 0.05% trypsin-EDTA for a few seconds at room temperature, harvested in cell medium containing FBS to neutralize the trypsin, counted, and cryopreserved at the density of 2 million cells/mL in cell preservation solution containing FBS-HI with 5% DMSO. Cryopreserved cells were stored at −80° C. for a few days prior to transferring to a liquid nitrogen tank. Induced cell lines were then used for suspension assays to measure the activity of polypeptides to stimulate cGMP production in cGMP assays or for the preparation of cell membranes to measure the binding activity of polypeptides in competitive radioligand binding assays, as described below.
Test polypeptides were added starting at 10 μM concentration and at 10-fold decreasing concentrations to obtain 8-point concentration-response curves (i.e., 10 μM to 1 pM). The quantity of cGMP generated was detected using HTRF® technology and normalized to maximum amount produced by 100 nM amidated rat ANP and the minimum amount produced by assay buffer. Detailed steps are outlined below.
Stock solutions of test polypeptides (2 mM) dissolved in DMSO were first diluted 100-fold in assay buffer containing HBSS with Ca^2+ and Mg^2+, 5 mM HEPES, 0.5 mM IBMX, and 0.1% BSA or 0.1% casein (pH 7.4). The polypeptides were further serially diluted in 1:10 dilution steps in assay buffer containing 0.1% BSA or 0.1% casein to generate 8-point 2× working stock solutions ranging from 20 μM to […].
A 10 μL cell suspension containing 4000 cells was plated in Costar® half-area white opaque 96-well plates (Corning, cat no. 3693). Then 10 μL of assay buffer (basal activity), 200 nM of amidated rat ANP (maximum activity) or 2× working stock solutions of test polypeptides were transferred into the plate. Final concentration of DMSO in each well was 0.5%. The plate was shaken for 15 sec and then incubated for 40 min at room temperature.
The cGMP generated was measured using cGMP kit following the manufacturer's directions, as described below.
Background: TR-FRET usually uses a lanthanide donor and a delayed reading to cut background.

The record followed here is patent US20240174727A1, “LONG-ACTING NATRIURETIC PEPTIDES AND USES THEREOF” (Eli Lilly and Company, priority 2022, published 2024).

Consider `CC[C@H](C)[C@@H]1NC(=O)[C@H](CCCNC(=N)N)NC(=O)[C@H](CC(=O)O)NC(=O)[C@H]([C@@H](C)CC)NC(=O)[C@H](CCCNC(=N)N)NC(=O)CNC(=O)CNC(=O)[C@H](Cc2ccccc2)NC(=O)[C@@H](NC(=O)[C@H](CO)NC(=O)[C@H](CO)NC(=O)[C@H](CCCNC(=N)N)NC(=O)CCNC(=O)[C@H](CCCCN)NC(=O)[C@H](CCC(=O)O)NC(=O)CCOCCOCCOCCOCCOCCOCCOCCOCCOCCOCCOCCOCCNC(=O)CNC(=O)[C@H](CCCCN)NC(=O)[C@H](CCC(=O)O)NC(=O)[C@H](CCCCN)NC(=O)[C@H](CCC(=O)O)NC(=O)[C@H](CCCCN)NC(=O)[C@H](CCC(=O)O)NC(=O)CC[C@H](NC(=O)CCCCCCCCCCCCCCCCCCC(=O)O)C(=O)O)CSCSC[C@@H](C(=O)N2CCC[C@H]2C(=O)N[C@@H](CO)C(=O)N[C@@H](Cc2ccccc2)C(=O)N[C@@H](CCCNC(=N)N)C(=O)N[C@@H](Cc2c[nH]cn2)C(=O)NCC(=O)NCC(=O)N[C@@H](CCCCN)C(=O)N[C@@H](CO)C(=O)N[C@@H](CO)C(=O)NCC(=O)N[C@@H](C)C(=O)N2CCC[C@H]2C(=O)N2CCC[C@H]2C(=O)N2CCC[C@H]2C(=O)N[C@@H](CO)C(N)=O)NC(=O)CNC(=O)[C@H](CC(C)C)NC(=O)CNC(=O)[C@H](CO)NC(=O)[C@H](Cc2ccc(O)cc2)NC(=O)[C@H](Cc2c[nH]cn2)NC(=O)CNC1=O` [Example 77], for which the midpoint of the response, the EC50, lay at 1270 pM.

As to `CC[C@H](C)[C@@H]1NC(=O)[C@H](CCCNC(=N)N)NC(=O)[C@H](CC(=O)O)NC(=O)[C@H]([C@@H](C)CC)NC(=O)[C@H](CCCNC(=N)N)NC(=O)CNC(=O)CNC(=O)[C@H](Cc2ccccc2)NC(=O)[C@@H](NC(=O)[C@H](CO)NC(=O)[C@H](CO)NC(=O)[C@H](CCCNC(=N)N)NC(=O)[C@H](CCCCN)NC(=O)[C@H](Cc2ccncc2)NC(=O)[C@H](CO)NC(=O)CNC(=O)[C@H](CCCCN)NC(=O)[C@H](CCC(=O)O)NC(=O)[C@H](CCCCN)NC(=O)[C@H](CCC(=O)O)NC(=O)[C@H](CCCCN)NC(=O)[C@H](CCC(=O)O)NC(=O)CC[C@H](NC(=O)CCCCCCCCCCCCCCCCCCC(=O)O)C(=O)O)CSSC[C@@H](C(=O)N2CCC[C@H]2C(=O)N[C@@H](CO)C(=O)N[C@@H](Cc2ccccc2)C(=O)N[C@@H](CCCNC(=N)N)C(=O)N[C@@H](Cc2c[nH]cn2)C(=O)NCC(=O)NCC(=O)N2CCC[C@H]2C(=O)N[C@@H](CO)C(=O)N[C@@H](CO)C(=O)NCC(=O)N[C@@H](C)C(=O)N2CCC[C@H]2C(=O)N2CCC[C@H]2C(=O)N2CCC[C@H]2C(=O)N[C@@H](CO)C(N)=O)NC(=O)CNC(=O)[C@H](CC(C)C)NC(=O)CNC(=O)[C@H](CO)NC(=O)[C@H](CCC(N)=O)NC(=O)[C@H](Cc2c[nH]cn2)NC(=O)CNC1=O` [Example 35], the half-maximal effective concentration (EC50) turned out to be 118 pM. This EC50 is about 11-fold lower than that of the compound before. The figure for `CC[C@H](C)[C@@H]1NC(=O)[C@H](CCCNC(=N)N)NC(=O)[C@H](CC(=O)O)NC(=O)[C@H]([C@@H](C)CC)NC(=O)[C@H](CCCNC(=N)N)NC(=O)CNC(=O)CNC(=O)[C@H](Cc2ccccc2)NC(=O)[C@@H](NC(=O)[C@H](CO)NC(=O)[C@H](CO)NC(=O)[C@H](CCCNC(=N)N)NC(=O)[C@H](CCCNC(=N)N)NC(=O)[C@H](Cc2ccncc2)NC(=O)[C@H](CO)NC(=O)COCCOCCNC(=O)COCCOCCNC(=O)COCCOCCNC(=O)COCCOCCNC(=O)COCCOCCNC(=O)COCCOCCNC(=O)CNC(=O)[C@H](CCCCN)NC(=O)[C@H](CCC(=O)O)NC(=O)[C@H](CCCCN)NC(=O)[C@H](CCC(=O)O)NC(=O)[C@H](CCCCN)NC(=O)[C@H](CCC(=O)O)NC(=O)CC[C@H](NC(=O)CCCCCCCCCCCCCCCCCCC(=O)O)C(=O)O)CSCSC[C@@H](C(=O)N2CCC[C@H]2C(=O)N[C@@H](CO)C(=O)N[C@@H](Cc2ccccc2)C(=O)N[C@@H](CCCNC(=N)N)C(=O)N[C@@H](Cc2c[nH]cn2)C(=O)NCC(=O)NCC(=O)N2CCC[C@H]2C(=O)N2CCC[C@H]2C(=O)N[C@@H](CO)C(=O)NC(C)(C)C(=O)N[C@@H](CCCCN)C(=O)N2CCC[C@H]2C(=O)N2CCC[C@H]2C(=O)N2CCC[C@H]2C(=O)N[C@@H](CCCCN)C(N)=O)NC(=O)CNC(=O)[C@H](CC(C)C)NC(=O)CNC(=O)[C@H](CO)NC(=O)[C@H](Cc2ccc(O)cc2)NC(=O)[C@H](Cc2c[nH]cn2)NC(=O)CNC1=O` [Example 97] is 720 pM; for `CC[C@H](C)[C@@H]1NC(=O)[C@H](CCCNC(=N)N)NC(=O)[C@H](CC(=O)O)NC(=O)[C@H]([C@@H](C)CC)NC(=O)[C@H](CCCNC(=N)N)NC(=O)CNC(=O)CNC(=O)[C@H](Cc2ccccc2)NC(=O)[C@@H](NC(=O)[C@H](CO)NC(=O)[C@H](CO)NC(=O)[C@H](CCCNC(=N)N)NC(=O)CNC(=O)[C@H](CCCCN)NC(=O)[C@H](CCC(=O)O)NC(=O)CNC(=O)[C@H](CCCCN)NC(=O)[C@H](CCC(=O)O)NC(=O)[C@H](CCCCN)NC(=O)[C@H](CCC(=O)O)NC(=O)[C@H](CCCCN)NC(=O)[C@H](CCC(=O)O)NC(=O)CC[C@H](NC(=O)CCCCCCCCCCCCCCCCCCC(=O)O)C(=O)O)CSSC[C@@H](C(=O)N2CCC[C@H]2C(=O)N[C@@H](CO)C(=O)N[C@@H](Cc2ccccc2)C(=O)N[C@@H](CCCNC(=N)N)C(=O)N[C@@H](Cc2c[nH]cn2)C(=O)N[C@@H](CCCCN)C(=O)NCC(=O)NCC(=O)N2CCC[C@H]2C(=O)N[C@@H](CO)C(=O)N[C@@H](CO)C(=O)NCC(=O)N[C@@H](C)C(=O)N2CCC[C@H]2C(=O)N2CCC[C@H]2C(=O)N2CCC[C@H]2C(=O)N[C@@H](CO)C(N)=O)NC(=O)CNC(=O)[C@H](CC(C)C)NC(=O)CNC(=O)[C@H](CO)NC(=O)[C@H](Cc2ccc(O)cc2)NC(=O)[C@H](Cc2c[nH]cn2)NC(=O)CNC1=O` [Example 50] it is 614 pM.

What is called EC50 is the concentration that produces a half-maximal response.
